Laboratory results: patent publication US6953793B2 (priority 2000, dated 2005)

Chains of the proteins cited; added tags and fusions are not shown. Residues count along the entry.
UniProt P25774, 115-331: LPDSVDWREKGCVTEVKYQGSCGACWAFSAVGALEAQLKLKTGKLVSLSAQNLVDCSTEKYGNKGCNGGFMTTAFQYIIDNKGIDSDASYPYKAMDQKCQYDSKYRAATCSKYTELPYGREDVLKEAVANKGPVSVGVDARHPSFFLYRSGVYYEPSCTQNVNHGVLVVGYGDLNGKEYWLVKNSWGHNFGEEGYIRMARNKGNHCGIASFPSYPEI

The molecules below were run against T1, Recombinant human cathepsin S (CatS) (Homo sapiens, UniProt P25774) (assay: biochemical).
T1 construct: made in house; host or cells: baculovirus system (insect cells)
`CS(=O)(=O)N1CCc2c(c(-c3ccc(C(F)(F)F)cc3)nn2CC(O)CN2CCC(n3cnc4ccccc43)CC2)C1` (centres unmarked) [Example 215, 1-(4-Benzoimidazol-1-yl-piperidin-1-yl)-3-[5-methanesulfonyl-3-(4-trifluoromethyl-phenyl)-4,5,6,7-tetrahydro-pyrazolo[4,3-c]pyridin-1-yl]-propan-2-ol] gave an IC50 of 140 nM. `CC(=O)N1CCc2c(c(-c3ccc(Br)cc3)nn2C[C@H](O)CN2CCC(n3c(=O)[nH]c4ccccc43)CC2)C1` [Example 284, (R)-1-(1-{3-[5-Acetyl-3-(4-bromo-phenyl)-4,5,6,7-tetrahydro-pyrazolo[4,3-c]pyridin-1-yl]-2-hydroxy-propyl}-piperidin-4-yl)-1,3-dihydro-benzoimidazol-2-one] gave an IC50 of 260 nM. Work on `CC(=O)N1CCc2c(c(-c3ccc(Cl)cc3)nn2CC(O)CN2CCC(Nc3ccc(C#N)cc3)CC2)C1` (centres unmarked) [Example 221, 4-(1-{3-[5-Acetyl-3-(4-chloro-phenyl)-4,5,6,7-tetrahydro-pyrazolo[4,3-c]pyridin-1-yl]-2-hydroxy-propyl}-piperidin-4-ylamino)-benzonitrile] yielded an IC50 of 1400 nM. For `CS(=O)(=O)N1CCc2c(c(-c3ccc(C(F)(F)F)cc3)nn2CC(O)CN2CCC(n3c(=O)n(CC#N)c4cccnc43)CC2)C1` (centres unmarked) [Example 375, [3-(1-{2-Hydroxy-3-[5-methanesulfonyl-3-(4-trifluoromethyl-phenyl)-4,5,6,7-tetrahydro-pyrazolo[4,3-c]pyridin-1-yl]-propyl}-piperidin-4-yl)-2-oxo-2,3-dihydro-imidazo[4,5-b]pyridin-1-yl]-acetonitrile], the IC50 was 50 nM. `CCOC(=O)Cn1c(=O)n(C2CCN(CC(O)Cn3nc(-c4ccc(Br)cc4)c4c3CCN(S(C)(=O)=O)C4)CC2)c2ccccc21` (centres unmarked) [Example 379, [3-(1-{3-[3-(4-Bromo-phenyl)-5-methanesulfonyl-4,5,6,7-tetrahydro-pyrazolo[4,3-c]pyridin-1-yl]-2-hydroxy-propyl}-piperidin-4-yl)-2-oxo-2,3-dihydro-benzoimidazol-1-yl]-acetic acid ethyl ester] gave an IC50 of 70 nM. `CN(C)c1ccc2c(n1)n(C1CCN(CC(O)Cn3nc(-c4ccc(C(F)(F)F)cc4)c4c3CCN(S(C)(=O)=O)C4)CC1)c(=O)n2C` (centres unmarked) [Example 346, 5-Dimethylamino-3-(1-{2-hydroxy-3-[5-methanesulfonyl-3-(4-trifluoromethyl-phenyl)-4,5,6,7-tetrahydro-pyrazolo[4,3-c]pyridin-1-yl]-propyl}-piperidin-4-yl)-1-methyl-1,3-dihydro-imidazo[4,5-b]pyridin-2-one] showed an IC50 of 70 nM. In the case of `CS(=O)(=O)N1CCc2c(c(-c3ccc(Br)cc3)nn2CC(O)CN2CCC(n3c(=O)n(CCN4CCOCC4)c4ccc(Cl)cc43)CC2)C1` (centres unmarked) [Example 304, 3-(1-{3-[3-(4-Bromo-phenyl)-5-methanesulfonyl-4,5,6,7-tetrahydro-pyrazolo[4,3-c]pyridin-1-yl]-2-hydroxy-propyl}-piperidin-4-yl)-5-chloro-1-(2-morpholin-4-yl-ethyl)-1,3-dihydrobenzoimidazol-2-one], the IC50 is reported as 140 nM. `CC(=O)N1CCc2c(c(-c3ccc(C(F)(F)F)cc3)nn2CC(O)CN2CCC(n3c(=O)n(CCO)c4ccccc43)CC2)C1` (centres unmarked) [Example 313, 1-(1-{3-[5-Acetyl-3-(4-trifluoromethyl-phenyl)-4,5,6,7-tetrahydro-pyrazolo[4,3-c]pyridin-1-yl]-2-hydroxy-propyl}-piperidin-4-yl)-3-(2-hydroxy-ethyl)-1,3-dihydro-benzoimidazol-2-one] was tested, and the IC50 was 230 nM. For `CC(=O)N1CCc2c(c(-c3ccc(Br)cc3)nn2C[C@H](O)CN2CCC(n3c(=O)[nH]c4ccc(Cl)cc43)CC2)C1` [Example 289, (R)-1-(1-{3-[5-Acetyl-3-(4-bromo-phenyl)-4,5,6,7-tetrahydro-pyrazolo[4,3-c]pyridin-1-yl]-2-hydroxy-propyl}-piperidin-4-yl)-6-chloro-1,3-dihydro-benzoimidazol-2-one], the IC50 was 200 nM. In the case of `CC(=O)N1CCc2c(c(-c3ccc(C(F)(F)F)cc3)nn2CC(O)CN2CCC(c3nc4ccccc4s3)CC2)C1` (centres unmarked) [Example 126, 1-[1-[3-(4-Benzothiazol-2-yl-piperidin-1-yl)-2-hydroxy-propyl]-3-(4-trifluoromethyl-phenyl)-1,4,6,7-tetrahydro-pyrazolo[4,3-c]pyridin-5-yl]-ethanone], the IC50 is reported as 80 nM. `NC(=O)N1CCc2c(c(-c3ccc(Br)cc3)nn2CC(O)CN2CCC(n3c(=O)[nH]c4cccnc43)CC2)C1` (centres unmarked) [Example 374, 3-(4-Bromo-phenyl)-1-{2-hydroxy-3-[4-(2-oxo-1,2-dihydro-imidazo[4,5-b]pyridin-3-yl)-piperidin-1-yl]-propyl}-1,4,6,7-tetrahydro-pyrazolo[4,3-c]pyridine-5-carboxylic acid amide] showed an IC50 of 80 nM. For `Cn1c(=O)n(C2CCN(CCCn3nc(-c4ccc(Br)cc4)c4c3CCN(S(=O)(=O)Cc3ccccc3)C4)CC2)c2ccccc21` [Example 354, 1-(1-{3-[3-(4-Bromo-phenyl)-5-phenylmethanesulfonyl-4,5,6,7-tetrahydro-pyrazolo[4,3-c]pyridin-1-yl]-propyl}-piperidin-4-yl)-3-methyl-1,3-dihydro-benzoimidazol-2-one], the IC50 was 930 nM. Molecule `Cn1c(=O)n(C2CCN(CCCn3nc(-c4ccc(C(F)(F)F)cc4)c4c3CCN(S(=O)(=O)NC(=O)OC(C)(C)C)C4)CC2)c2ccccc21` [Example 335, 1-{3-[4-(3-Methyl-2-oxo-2,3-dihydro-benzoimidazol-1-yl)-piperidin-1-yl]-propyl}-3-(4-trifluoromethyl-phenyl)-1,4,6,7-tetrahydro-pyrazolo[4,3-c]pyridine-5-sulfonic acid (N-t-butoxycarbonyl)amide] has an IC50 of 390 nM. `CC(=O)N1CCc2c(c(-c3ccc(SC(F)(F)F)cc3)nn2CC(O)CN2CCC(n3c(=O)[nH]c4ccccc43)CC2)C1` (centres unmarked) [Example 257, 1-(1-{3-[5-Acetyl-3-(4-trifluoromethylsulfanyl-phenyl)-4,5,6,7-tetrahydro-pyrazolo[4,3-c]pyridin-1-yl]-2-hydroxy-propyl}-piperidin-4-yl)-1,3-dihydro-benzoimidazol-2-one] was tested, and the IC50 was 260 nM. `COc1ccc2c(c1)[nH]c(=O)n2C1CCN(CC(O)Cn2nc(-c3ccc(Br)cc3)c3c2CCN(C(C)=O)C3)CC1` (centres unmarked) [Example 285, 1-(1-{3-[5-Acetyl-3-(4-bromo-phenyl)-4,5,6,7-tetrahydro-pyrazolo[4,3-c]pyridin-1-yl]-2-hydroxy-propyl}-piperidin-4-yl)-5-methoxy-1,3-dihydro-benzoimidazol-2-one] showed an IC50 of 130 nM. Molecule `CC(C)(C)OC(=O)NS(=O)(=O)N1CCc2c(c(-c3ccc(Br)cc3)nn2CCCN2CCC(n3c(=O)[nH]c4ccccc43)CC2)C1` [Example 365, 3-(4-Bromo-phenyl)-1-{3-[4-(2-oxo-2,3-dihydro-benzoimidazol-1-yl)-piperidin-1-yl]-propyl}-1,4,6,7-tetrahydro-pyrazolo[4,3-c]pyridine-5-sulfonic acid t-butoxycarbonyl-amide] has an IC50 of 110 nM. Molecule `CC(=O)N1CCc2c(c(-c3ccc(Br)cc3)nn2CC(O)CN2CCC(n3c(=O)oc4cccc(C)c43)CC2)C1` (centres unmarked) [Example 387, 3-(1-{3-[5-Acetyl-3-(4-bromo-phenyl)-4,5,6,7-tetrahydro-pyrazolo[4,3-c]pyridin-1-yl]-2-hydroxy-propyl}-piperidin-4-yl)-4-methyl-3H-benzooxazol-2-one] has an IC50 of 340 nM.
